This is a selection: effects in other tests are not listed, and their absence says nothing.
Key:
[1] = Permeation of odor compounds through 2.0 mil LDPE bags (gravimetric); settings: gradient of mass loss over time
[2] = tested on: trained and certified explosives detection canines; assay: Canine field trials, active odor determination (odor line-up of hide boxes); settings: for % Alert: Scratch Box
[3] = cited from earlier work
[4] = Permeation of odor compounds through different polymer chemistries (gravimetric); settings: 25.0 mg on gauze; LDPE 1.5-4.0 mil, polypropylene, cellophane, Kapak; 1 month
[5] = tested on: previously trained explosive detection canines; assay: First field test of silica TNT mimic aid, previously trained dogs (Table 91); settings: 1.25 g 2,4-dinitrotoluene as 25 g silica COMPS TNT aid in 2.0 mil LDPE
[6] = Table 52, 100 μl at 1000 ppm Acetonitrile on Cotton in LDPE, 6 canines
[7] = Table 53, 100 μl at 1000 ppm Acetonitrile on Cotton in Open Vial, 11 canines
[8] = Table 53 field experiment, 100 ug total

Structure (SMILES)	permeation rate through LDPE [1] [pg/s]	% Alert [2, 6] [%]	% Alert [2, 7] [%]	Vapour Pressure at 25° C. [3]	also measured
O=[N+]([O-])c1cccc([N+](=O)[O-])c1	117.4	50.0	27.3	–	alerts (canines alerting / canines tested) [2, 8]: 3/11; interests (canines showing interest / canines tested) [2, 8]: 1/11; responses (canines responding / canines tested) ([2]; Table 54, 5.0 mg): 0/9
O=[N+]([O-])OCC(CO[N+](=O)[O-])(CO[N+](=O)[O-])CO[N+](=O)[O-]	–	–	–	1.4 × 10^−8 torr	–
O=[N+]([O-])c1cc([N+](=O)[O-])c(O)c([N+](=O)[O-])c1	–	–	–	5.8 × 10^−9 torr	–
Cc1c([N+](=O)[O-])cccc1[N+](=O)[O-]	155.6	–	–	–	–
O=[N+]([O-])OCCO[N+](=O)[O-]	–	–	–	7.0 × 10^−2 torr	–
Cc1c([N+](=O)[O-])cc([N+](=O)[O-])cc1[N+](=O)[O-]	–	33.3	45.4	5.8 × 10^−6 torr	alerts (canines alerting / canines tested) ([2]; Table 54, 5.0 mg): 0/9
Cc1ccc([N+](=O)[O-])cc1[N+](=O)[O-]	80.36	50.0	9.1	–	permeation through different polymers (qualitative) [4]: no noticeable difference in the rate of loss; alerts (canines alerting / canines tested) [5]: 7/10; interests (canines showing interest / canines tested) [5]: 2/10; alerts (canines alerting / canines tested) [2, 8]: 1/11; interests (canines showing interest / canines tested) [2, 8]: 5/11; alerts (canines alerting / canines tested) ([2]; Table 54, 5.0 mg): 0/9; positive responses of canines ([2]; Table 64, 1.0 g): no positive responses
CN(c1c([N+](=O)[O-])cc([N+](=O)[O-])cc1[N+](=O)[O-])[N+](=O)[O-]	–	–	–	5.7 × 10^−9 torr	–

From patent publication US9706755B2, “Controlled odor mimic permeation system” (dated 2017)
